The target of one test is T1, UGT1A10 (Homo sapiens, UniProt Q9HAW8).
T1 sequence (Q9HAW8 26-530): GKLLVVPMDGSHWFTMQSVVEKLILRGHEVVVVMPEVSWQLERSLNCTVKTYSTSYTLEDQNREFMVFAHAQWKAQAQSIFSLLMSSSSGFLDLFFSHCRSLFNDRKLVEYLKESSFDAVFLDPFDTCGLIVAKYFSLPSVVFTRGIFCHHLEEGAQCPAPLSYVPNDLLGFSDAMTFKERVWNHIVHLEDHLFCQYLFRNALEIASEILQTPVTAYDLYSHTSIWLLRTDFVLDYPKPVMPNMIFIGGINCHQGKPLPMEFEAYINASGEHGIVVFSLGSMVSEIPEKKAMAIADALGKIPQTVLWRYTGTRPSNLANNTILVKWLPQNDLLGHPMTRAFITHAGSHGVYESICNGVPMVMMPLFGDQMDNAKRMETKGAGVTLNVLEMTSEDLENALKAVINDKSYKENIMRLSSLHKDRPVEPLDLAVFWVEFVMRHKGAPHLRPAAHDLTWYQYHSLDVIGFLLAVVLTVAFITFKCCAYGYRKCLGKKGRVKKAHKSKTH
Put plainly: Inhibition of recombinant UGT1A10 activity (4-MU glucuronidation). The conditions noted are these: read-out: IC50 for inhibition of UGT1A10 activity; recombinant human UGT1A10, 80 μM 4-MU, mean ± SD. As to the method:
(§1) A panel of recombinant human UGT supersomes (UGT1A1, UGT1A3, UGT1A4, UGT1A6, UGT1A7, UGT1A8, UGT1A9, UGT1A10, UGT2B4, UGT2B7, UGT2B15, and UGT2B17) expressed in baculovirus-infected insect cells were purchased from BD Gentest Corp. (Woburn, MA, USA).
(§2) 4-MU, a nonselective substrate of UGTs, was used as probe substrate for all UGTs except UGT1A4. Incubations with each individual enzyme were conducted using conditions previously described. There was a 5 min preincubation step at 37°C before the reaction was started by addition of UDPGA. The incubation mixtures were then centrifuged at 20,500 ×g for 15 min to obtain the supernatant. Aliquots (20 μL) were then analyzed by HPLC. The HPLC system (SHIMADZU, Kyoto, Japan) consisted of an SCL-10A system controller, two LC-10AT pumps, a SIL-10A auto injector, and a SPD-10AVP UV detector. Chromatographic separation was achieved using a Kromasil ODS column (4.6 × 150 mm I.D., 5 μm particle size) at a flow rate of 1 mL/min and UV detection at 316 nm. The mobile phase consisted of 10 mM KH2PO4, pH 2.7 (A) and acetonitrile (B). […]
(§3) Inhibition data from experiments were graphically represented by Dixon plots. K i values were calculated by nonlinear regression using the equations for competitive inhibition (1), noncompetitive inhibition (2), or mixed inhibition (3), [22] […]

The target in a further test is T2, UGT1A8 (Homo sapiens, UniProt Q9HAW9).
T2 sequence (Q9HAW9 26-530): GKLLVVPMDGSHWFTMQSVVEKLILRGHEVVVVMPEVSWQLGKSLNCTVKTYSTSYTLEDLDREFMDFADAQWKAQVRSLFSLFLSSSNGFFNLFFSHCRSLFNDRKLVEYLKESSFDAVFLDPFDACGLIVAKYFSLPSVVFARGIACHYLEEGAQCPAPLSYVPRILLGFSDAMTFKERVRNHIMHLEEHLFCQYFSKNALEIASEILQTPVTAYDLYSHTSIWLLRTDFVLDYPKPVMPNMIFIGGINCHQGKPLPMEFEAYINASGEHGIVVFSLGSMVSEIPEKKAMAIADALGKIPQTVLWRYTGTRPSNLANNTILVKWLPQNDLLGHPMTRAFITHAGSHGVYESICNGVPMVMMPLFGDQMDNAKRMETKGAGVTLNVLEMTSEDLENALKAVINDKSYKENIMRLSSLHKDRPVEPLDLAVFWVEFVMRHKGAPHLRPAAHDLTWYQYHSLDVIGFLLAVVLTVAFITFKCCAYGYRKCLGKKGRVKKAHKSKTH
Put plainly: Inhibition of recombinant UGT1A8 activity (4-MU glucuronidation). The conditions noted are these: read-out: IC50 for inhibition of UGT1A8 activity; recombinant human UGT1A8, 750 μM 4-MU, mean ± SD. The method, then:
as §1, §2, §3

In the case of Icariside II, the IC50 at UGT1A10 and at UGT1A8 was greater than 100 µM each time.

Source of the values: PMC3479967, “Drug-Drug Interactions Potential of Icariin and Its Intestinal Metabolites via Inhibition of Intestinal UDP-Glucuronosyltransferases” (Evidence-based Complementary and Alternative Medicine : eCAM, 2012).
